## Yeast mating assay 1: variants of the scFv Ab-14

Antigen: PDVDLGDISGINAS, a 14-residue peptide of the SARS-CoV-2 spike HR2 region.

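Library AAYL50 holds single substitutions and randomly drawn double and triple substitutions in the CDRs. In AlphaSeq, yeast of one mating type display the scFv and yeast of the other type display the target. The frequency of each diploid, read from paired DNA barcodes, reflects how well the two displayed proteins bind. A regression on co-assayed BCL2-family reference pairs converts the normalised counts of each replicate to an apparent Kd. The assay was run in three technical replicates.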

Ab-14 is the parent antibody, in scFv form: VH, then a (GGGGS)3 linker, then VL. The heavy chain is unchanged in all variants.
VH: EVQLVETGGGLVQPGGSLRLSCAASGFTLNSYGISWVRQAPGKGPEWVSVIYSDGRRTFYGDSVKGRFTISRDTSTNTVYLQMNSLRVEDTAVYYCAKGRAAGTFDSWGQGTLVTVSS
VL: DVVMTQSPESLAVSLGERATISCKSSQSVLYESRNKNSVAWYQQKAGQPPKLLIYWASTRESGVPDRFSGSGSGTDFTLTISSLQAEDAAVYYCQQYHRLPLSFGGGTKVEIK

The parent's light chain CDRs are KSSQSVLYESRNKNSVA, WASTRES, QQYHRLPLS; each variant's own CDRs replace them letter for letter.
Affinities are written as log10 Kd with Kd in nM; a lower number is a better binder.
"nd" marks a missing value. The strain was present, yet no cells mated with the target were sequenced in that replicate, which points to weak or no binding.
In this assay the parent's reference entry averaged 0.65; its copy inside this library read 1.68.
As a blank, each scFv also met three strains without target: over library AAYL50, 18% of these pairings were detected, typically at 4.19 and seldom below 2.99. The control count says in how many pairings with the empty strains this scFv gave a signal.

KSSQVVLYEERNKNSVA / WASTRES / QQYHRIPLS: 1.24, 1.16, 1.31 (controls 3 of 9).
KSSQSVLYESRNKNSVA / WASDRES / QPYHRLRLS: nd, 4.19, nd (controls 2 of 9).
KSSQSVLYESRNKNSVA / WASQREA / QQYHRVPLS: nd, nd, nd (controls 0 of 9).
KESQSVLYESRNKNSPA / WASTRMS / QQYHRLPLS: nd, nd, nd (controls 1 of 9).
KSSQEVLYESRNRNTVA / WASTRES / QQYHRLPLS: 3.85, 4.09, 3.11 (controls 3 of 9).
KSSQSVLYEMRNKNSVA / WASTRDS / QQYHRLPLS: 1.27, 1.24, 1.42 (controls 2 of 9).
KSSQSVLYESRNRNSVA / SASTRES / QQDHRLPLS: nd, 2.93, 4.18 (controls 0 of 9).
KRSCSVLDESRNKNSVA / WASTRES / QQYHRLPLS: 1.07, 1.44, 1.65 (controls 1 of 9).
VSSQSVLYESRNKNSVA / WASTKGS / QQYHRLPLS: 3.55, 2.40, 3.16 (controls 3 of 9).
KSSQSVLYESRGKNSVA / WCSIRES / QQYHRLPLS: 2.29, nd, 3.35 (controls 0 of 9).
VSSQSVLYESRNKNPVA / WASTRLS / QQYHRLPLS: 1.30, 1.33, 1.21 (controls 0 of 9).
KSSQSVLYESRNKNSVA / WASTMES / QCYHRLPYS: nd, nd, nd (controls 0 of 9).
KSSQSVLYEWRNKNSVA / WRSTRES / MQYHRLPLS: nd, nd, nd (controls 1 of 9).
KSSQSVLEESRNKNKVA / WASTRES / QQYHRLPNS: nd, nd, nd (controls 0 of 9).
KSIQHVLYESRNKNSVA / WTSTRES / QQYHRLPLS: 2.18, 2.17, 2.31 (controls 2 of 9).
KSSQSVLYESRNKNGVA / WASTRNS / QQYHRLPLV: 4.35, 4.61, 5.04 (controls 4 of 9).
KSSQSVLYESPNKNSVA / YASTRES / QQYHRNPLS: nd, nd, nd (controls 1 of 9).
KSSQSMLYESRNKPSVA / WVSTRES / QQYHRLPLS: 2.47, 2.51, 2.66 (controls 4 of 9).
KSWQSVLYESRAKNSVA / WASTRES / QQYHRWPLS: nd, 5.54, 4.98 (controls 6 of 9).
KSSQSVLYEQRNKNSVA / WASTVES / QQYHALPLS: 3.29, 2.42, 2.81 (controls 4 of 9).
KASQSVLYESRNKNSVA / WASTYES / QQRHRLPLS: nd, nd, nd (controls 1 of 9).
KSSQSVLYESETKNSVA / WANTRES / QQYHRLPLS: 0.16, 0.55, 0.32 (controls 1 of 9).
KSSQSVLYESRNKNSVA / WISTRNS / QQYHRLPLF: nd, nd, nd (controls 0 of 9).
KSSQSVLYESRNKISVA / WASPIES / QQYHRLPLS: 4.44, 3.93, nd (controls 2 of 9).
KSSQSVLHESRNKNYVA / WASTRPS / QQYHRLPLS: nd, nd, 3.80 (controls 0 of 9).
KSSQSVLAESRNKNSVA / WGSTRES / QQYHRKPLS: nd, nd, 5.32 (controls 2 of 9).
KYSQSVLSESRNKNSVA / WASTRES / QQYHRLPLS: -0.02, 0.31, 0.11 (controls 2 of 9).
KSSQIVLYESRNKNSVA / WASTRES / QQYHRLPLS: nd, nd, nd (controls 0 of 9).
KSSQSVLYESRNKNSCA / WASTRES / QQYHRLPLQ: 3.99, 3.30, 3.44 (controls 2 of 9).
KSSQSVLYDSRAKNSVA / WASTQES / QQYHRLPLS: 4.47, 3.36, 4.13 (controls 1 of 9).
KSDQSVLLESRNKNSVA / WASTRES / QQKHRLPLS: nd, nd, nd (controls 2 of 9).
KSSQIVLYESRNSNSVA / WASRRES / QQYHRLPLS: nd, nd, nd (controls 0 of 9).
KSSQEVLYESRNKNSVA / WASTRES / QQYYRMPLS: 1.52, 1.33, 0.92 (controls 0 of 9).
KSSQSVLYESRTKNSVQ / WASTRES / QTYHRLPLS: 4.33, nd, 5.59 (controls 7 of 9).
KSVQSVNYESRNKNSVA / WASTRES / QQAHRLPLS: 2.30, 2.66, 3.54 (controls 1 of 9).
KKSQSVLYESRNKNSVA / WASPRTS / QQYHRLPLS: 3.89, 4.09, 5.06 (controls 4 of 9).
KSSQSVLYESRNKNSVA / WASTRPQ / QQYKRLPLS: nd, nd, nd (controls 0 of 9).
KSSQSVLYESRNKNSVA / WASTRES / QQWGRLPLL: 6.45, 4.47, nd (controls 7 of 9).

The last 3 entries again:

The variant KKSQSVLYESRNKNSVA / WASPRTS / QQYHRLPLS showed 3.89, 4.09, 5.06 (controls 4 of 9).
The variant KSSQSVLYESRNKNSVA / WASTRPQ / QQYKRLPLS showed nd, nd, nd (controls 0 of 9).
The variant KSSQSVLYESRNKNSVA / WASTRES / QQWGRLPLL showed 6.45, 4.47, nd (controls 7 of 9).

Values reported by Engelhart et al. 2022, doi:10.1038/s41597-022-01779-4 (FLAb copy).